By UniProt entry, the sequences of proteins in these tests, tags left out.
UniProt P22199, whole entry: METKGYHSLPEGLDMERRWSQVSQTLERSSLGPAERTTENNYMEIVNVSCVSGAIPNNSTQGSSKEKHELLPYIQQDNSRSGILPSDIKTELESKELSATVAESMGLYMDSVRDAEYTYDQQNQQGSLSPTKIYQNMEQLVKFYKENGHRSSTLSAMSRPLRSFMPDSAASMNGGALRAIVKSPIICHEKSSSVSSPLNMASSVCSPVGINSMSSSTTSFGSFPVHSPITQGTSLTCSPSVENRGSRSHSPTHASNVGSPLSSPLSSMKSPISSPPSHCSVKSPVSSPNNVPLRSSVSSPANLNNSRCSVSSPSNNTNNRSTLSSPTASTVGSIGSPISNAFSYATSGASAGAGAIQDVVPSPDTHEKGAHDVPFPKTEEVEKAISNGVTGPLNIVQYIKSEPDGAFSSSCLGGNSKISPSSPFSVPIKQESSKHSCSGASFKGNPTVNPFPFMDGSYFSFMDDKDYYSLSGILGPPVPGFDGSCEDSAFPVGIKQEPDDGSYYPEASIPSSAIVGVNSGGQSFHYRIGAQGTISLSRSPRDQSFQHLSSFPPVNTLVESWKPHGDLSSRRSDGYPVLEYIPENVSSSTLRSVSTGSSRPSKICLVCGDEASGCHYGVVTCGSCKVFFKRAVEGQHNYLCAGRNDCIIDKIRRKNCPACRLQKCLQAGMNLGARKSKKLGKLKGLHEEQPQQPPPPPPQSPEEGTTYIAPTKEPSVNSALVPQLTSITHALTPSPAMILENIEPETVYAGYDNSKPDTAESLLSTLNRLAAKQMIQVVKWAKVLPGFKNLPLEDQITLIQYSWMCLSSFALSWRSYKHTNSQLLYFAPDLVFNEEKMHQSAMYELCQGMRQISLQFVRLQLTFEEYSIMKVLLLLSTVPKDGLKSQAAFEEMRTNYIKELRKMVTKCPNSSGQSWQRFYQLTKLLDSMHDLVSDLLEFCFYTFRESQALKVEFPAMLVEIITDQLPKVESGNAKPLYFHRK

According to patent publication US20130116227A1, “BIARYL AMIDE DERIVATIVE OR PHARMACEUTICALLY ACCEPTABLE SALT THEREOF” (DAINIPPON SUMITOMO PHARMA CO., LTD., priority 2010, published 2013):

Target: aldosterone receptor (Rattus norvegicus, UniProt P22199)
Experiment: Binding inhibition test for aldosterone receptor ([3H]aldosterone, rat renal soluble fraction)
Settings: read-out: MR IC50, [3H]aldosterone 2 nM, in the presence of 2 μM RU-486, 4° C. about 18 hours

| SMILES | IC50 [µM] |
| --- | --- |
| CCCN(CCC)c1cc(C(=O)Nc2ccc(S(N)(=O)=O)c(OC)c2)ccc1-c1ccccc1OC(F)(F)F | 0.23 |
| COc1cc(NC(=O)c2ccc(-c3ccccc3OC(F)(F)F)c(CNCC(F)F)c2)ccc1S(N)(=O)=O | 0.26 |
| COc1cc(NC(=O)c2ccc(-c3ccccc3OC(F)(F)F)c(CN3CC[C@@H](F)C3)c2)ccc1S(N)(=O)=O | 0.21 |
| COCCN(CCOC)Cc1cc(C(=O)Nc2ccc(S(C)(=O)=O)cc2)ccc1-c1ccccc1OC(F)(F)F | 0.17 |
| CS(=O)(=O)c1ccc(NC(=O)c2ccc(-c3ccccc3OC(F)(F)F)c(Cn3cnnn3)c2)cc1 | < 10 |
| COc1cc(NC(=O)c2ccc(-c3ccccc3OC(F)(F)F)c(CNCCF)c2)ccc1S(N)(=O)=O | 0.33 |
